Only a part is listed here, and it is no random draw. Active and inactive are the calls of the source. No stated cut-off is given here; in the data, active means inhibition above about 38%; inactive means the rest.

Amino acid sequences for entries named in this document (tags omitted).
UniProt P32249, whole entry: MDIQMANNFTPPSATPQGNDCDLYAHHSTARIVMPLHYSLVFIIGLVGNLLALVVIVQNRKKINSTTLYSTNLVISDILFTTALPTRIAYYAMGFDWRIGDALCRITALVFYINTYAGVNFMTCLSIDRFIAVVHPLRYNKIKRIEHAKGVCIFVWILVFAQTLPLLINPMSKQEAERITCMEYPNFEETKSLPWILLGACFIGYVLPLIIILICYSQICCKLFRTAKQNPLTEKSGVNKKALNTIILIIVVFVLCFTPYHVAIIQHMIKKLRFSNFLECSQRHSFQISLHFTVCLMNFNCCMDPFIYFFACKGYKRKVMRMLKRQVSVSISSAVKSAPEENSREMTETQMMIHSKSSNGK

This assay deals with G-protein coupled receptor 183 (Homo sapiens) (UniProt P32249). In words: blockers of oxysterol-driven EBI2 arrestin signaling – cell-based, luminescence, 7a,25-OHC stimulation, uHTS, primary screen (AID 651636).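 Further: enzyme fragment complementation signal reports receptor beta-arrestin coupling in cells; 0% = agonist plus DMSO wells and 100% = wells without agonist.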 To be noted: EBI2 beta-arrestin recruitment, 7a,25-OHC stimulated, at 5 µM, active compounds read high.
In the case of `CC(C)(C)n1nnnc1C(c1cccc2ccccc12)N1CCC(n2c(=O)[nH]c3ccccc32)CC1` (configuration not stated), the inhibition is inactive: 27.4%.

Take `CN(C)C1(CNC(=O)c2cccc(C#N)c2)CCCCC1`: the inhibition was inactive: 0.048%.

With `CCCN1CCC(Nc2cc(OC)cc(OC)c2)CC1`, the inhibition is inactive: 6.91%.

In the case of `O=c1[nH]c2ccccc2n1C1CCN(C(c2ccccc2)c2nnnn2C2CCCC2)CC1` (configuration not stated), the inhibition was inactive: 13.1%.

For `Cc1cc(N(CCCl)CCCl)ccc1C=O`, the inhibition is inactive: 26.7%.

As for `c1ccc(CN2CCC(Nc3ccccc3)CC2)cc1`, the inhibition was inactive: -2.22%.

`N#Cc1ccc(C(=O)NCC2(N3CCCCC3)CCCCC2)cc1`: the inhibition was inactive: -1.58%.

On to `CC(C)(C)OC(=O)N1CCC(N(C(=O)c2ccccc2)c2ccc(Cl)cc2)CC1`, for which the inhibition is inactive: 8.12%.

Regarding `O=c1[nH]c2ccccc2n1C1CCN(C(c2cccs2)c2nnnn2C2CCCC2)CC1` (configuration not stated), the inhibition is inactive: 14.2%.

Regarding `O=C(OC1CN2CCC1CC2)C1c2ccccc2C=Cc2ccccc21` (configuration not stated), the inhibition is inactive: 0.252%.

For `CCCCn1nnnc1C(c1cccc(OC)c1OC)N1CCC(n2c(=O)[nH]c3ccccc32)CC1` (configuration not stated), the inhibition is inactive: 2.41%.

As to `COc1cccc(C(c2nnnn2C(C)(C)C)N2CCC(n3c(=O)[nH]c4ccccc43)CC2)c1OC` (configuration not stated), the inhibition was inactive: 5.16%.

Consider `CCOC(=O)N1CCC(Nc2ccc(C)cc2)CC1`, for which the inhibition is inactive: -5.96%.

Regarding `N/C(=N\O)c1c(N)no[n+]1[O-]`, the inhibition was inactive: -9.76%.

In the case of `O=c1[nH]c2ccccc2n1C1CCN(C(c2cccs2)c2nnnn2C2CCCCC2)CC1` (configuration not stated), the inhibition was inactive: -3.49%.

Regarding `O=c1[nH]c2ccccc2n1C1CCN(C(c2ccnc3ccccc23)c2nnnn2C2CCCC2)CC1` (configuration not stated), the inhibition is inactive: 15.5%.

For the compound `COc1ccc(C(=O)NCC2(N3CCOCC3)CCCCC2)cc1OC`, the inhibition was inactive: 6.77%.

For `COc1cc(C(=O)NCC2(N3CCOCC3)CCCCC2)cc(OC)c1C`, the inhibition was inactive: 7.8%.

Take `CCCCn1nnnc1C(c1ccccc1)N1CCC(n2c(=O)[nH]c3ccccc32)CC1` (configuration not stated): the inhibition was inactive: 13.5%.

Turning to `O=C(NCC1(N2CCOCC2)CCCCC1)c1cc(Br)ccc1Cl`, the inhibition was inactive: 0.282%.

On to `CN1CCC(Nc2ccc(Cl)cc2)CC1`, for which the inhibition is inactive: 3.26%.

`COc1cccc(C(=O)N(c2cc(C)cc(C)c2)C2CCN(C(=O)OC(C)(C)C)CC2)c1`: the inhibition was inactive: 11.8%.

`COc1cccc(C(c2nnnn2C2CCCC2)N2CCC(n3c(=O)[nH]c4ccccc43)CC2)c1OC` (configuration not stated): the inhibition is inactive: 20.9%.

Consider `COc1cc(OC)cc(C(=O)NCC2(N3CCOCC3)CCCCC2)c1`, for which the inhibition was inactive: -0.842%.

Turning to `CCC(CO)(C(=O)OC1CN2CCC1CC2)c1ccccc1` (configuration not stated), the inhibition was inactive: -6.33%.

With `NN(c1ccccc1)C1CCN(CCc2ccccc2)CC1`, the inhibition was inactive: -9.86%.

Consider `O=C(O)C1(Nc2ccccc2)CCN(Cc2ccccc2)CC1`, for which the inhibition was inactive: -0.959%.

`CC(C)(C)OC(=O)N1CCC(Nc2ccccc2)CC1`: the inhibition was inactive: 1.45%.

With `CCCOc1ccc(C(=O)NCC2(N(C)C)CCCCC2)cc1`, the inhibition is inactive: -2.16%.

`O=c1[nH]c2ccccc2n1C1CCN(C(c2cc3ccccc3o2)c2nnnn2C2CCCC2)CC1` (configuration not stated): the inhibition is inactive: 20.1%.

As to `CN1CCC(Nc2ccc(F)c(Cl)c2)CC1`, the inhibition was inactive: -5%.

For the compound `CCOc1ncccc1C(=O)NCC1(N2CCOCC2)CCCCC1`, the inhibition is inactive: 1.06%.

On to `Cn1c(=O)[nH]cc(N(CCCl)CCCl)c1=O`, for which the inhibition was inactive: -3.58%.

With `CN(C)c1ccc(C(=O)NCC2(N3CCCCC3)CCCCC2)cc1`, the inhibition is inactive: -4.52%.

Take `O=C(NCC1(N2CCCCC2)CCCCC1)c1ccco1`: the inhibition was inactive: -6.42%.

For `CC(C)(C)n1nnnc1C(c1ccnc2ccccc12)N1CCC(n2c(=O)[nH]c3ccccc32)CC1` (configuration not stated), the inhibition is inactive: 24.2%.

With `COc1ccc(C(c2nnnn2C2CCCCC2)N2CCC(n3c(=O)[nH]c4ccccc43)CC2)cc1` (configuration not stated), the inhibition was inactive: 17.6%.

With `CCN1CCC(Nc2cccc(F)c2)CC1`, the inhibition was inactive: 5.81%.

As to `Cc1ccccc1NC1(C#N)CCN(Cc2ccccc2)CC1`, the inhibition was inactive: -3.15%.

As for `Fc1ccccc1NC1CCN(Cc2ccccc2)CC1`, the inhibition was inactive: -8.29%.

For the compound `Cc1ccc(C(=O)NCC2(N3CCCCC3)CCCCC2)o1`, the inhibition is inactive: 7.26%.

With `Cc1ccc(NC2(C#N)CCN(Cc3ccccc3)CC2)cc1`, the inhibition was inactive: -1.82%.

As to `CCC(c1nnnn1C1CCCCC1)N1CCC(n2c(=O)[nH]c3ccccc32)CC1` (configuration not stated), the inhibition was inactive: 2.16%.

For the compound `CC(=O)N(c1ccccc1)C1CCNCC1`, the inhibition was inactive: 5.28%.

In the case of `COc1cccc(C(c2nnnn2C2CCCCC2)N2CCC(n3c(=O)[nH]c4ccccc43)CC2)c1OC` (configuration not stated), the inhibition is inactive: 6.62%.

As for `O=c1[nH]c2ccccc2n1C1CCN(C(c2ccnc3ccccc23)c2nnnn2C2CCCCC2)CC1` (configuration not stated), the inhibition was inactive: 11.6%.

Take `COc1cc(OC)cc(C(=O)NCC2(N3CCCCC3)CCCCC2)c1`: the inhibition was inactive: 1.5%.

The values above are taken from PubChem BioAssay AID651636 (Sanford-Burnham Center for Chemical Genomics, 2012).
